2 compounds from PMC8815882, “Screening the pandemic response box identified benzimidazole carbamates, Olorofim and ravuconazole as promising drug candidates for the treatment of eumycetoma” (PLoS Neglected Tropical Diseases, 2022) can be followed below.

The test deals with M. mycetomatis genome strain MM55. Description: CLSI M38-A2 based in vitro susceptibility screening (XTT or resazurin), growth at fixed concentration. Format: cell-based, Madurella mycetomatis. To be noted: for activity at 25 µM / activity at 100 µM: Madurella mycetomatis. (Tetrazolium dyes change colour on reduction, which living cells bring about.)
Setting [1] is: read-out: Percentage survival at 25um, 25 uM B.
Setting [2] is: read-out: Percentage survival at 25um, 25 uM C.
Setting [3] is: read-out: Percentage survival at 25um, 25 uM mean.
The mark [4] stands for this setting: read-out: Percentage survival at 25um, 25 um A.
Setting [5] is: read-out: Percentage survival at 100um, 100 uM mean.

Structures are written as SMILES. Several values for one entry are separate records, joined by “and”; a condition that tells them apart may be missing. Equal entries are not always repeated. Where two headings read alike, the source gives them in different places.

In the case of `CCC[C@@H]1C[C@@H](C(=O)N[C@@H]([C@H]2O[C@H](SC)[C@H](O)[C@@H](O)[C@H]2O)[C@H](C)Cl)N(C)C1` [MMV000051], the activity at 25 µM reads like this: under setting [1], 142%; under setting [2], 112%; under setting [3], 113%; under setting [4], 85.4%. For the same compound, the activity at 100 µM reads like this: (read-out: Percentage survival at 100um, 100 uM A (first replicate column)) 84.7%; (read-out: Percentage survival at 100um, 100 uM A (second replicate column)) 81.2%; (read-out: Percentage survival at 100um, 100 uM A (third replicate column)) 91.2%; under setting [5], 85.7%.
Regarding `CN(C)CCCOc1ccc(-c2ccc3ncc4c(c3c2)n(C2CCOCC2)c(=O)n4C)cn1` [MMV1580483], the “Percentage survival at 100um, 100 uM A” value was 82.101% and 79.4709%. Moreover, the activity at 25 µM under setting [1] amounted to 97.1%. Besides, under setting [2], the activity at 25 µM is 112%. Moreover, under setting [3], the activity at 25 µM turned out to be 101%. The activity at 25 µM under setting [4] was determined as 93.2%. Moreover, the activity at 100 µM (read-out: Percentage survival at 100um, 100 uM A) turned out to be 86.6%. Under setting [5], the activity at 100 µM was 82.7%.
